Source: BindingDB's records for 10091683

Chains of the proteins cited; added tags and fusions are not shown. Lines headed by an entry give the natural chain unless they say otherwise; changes in a name come on top.
UniProt P18031: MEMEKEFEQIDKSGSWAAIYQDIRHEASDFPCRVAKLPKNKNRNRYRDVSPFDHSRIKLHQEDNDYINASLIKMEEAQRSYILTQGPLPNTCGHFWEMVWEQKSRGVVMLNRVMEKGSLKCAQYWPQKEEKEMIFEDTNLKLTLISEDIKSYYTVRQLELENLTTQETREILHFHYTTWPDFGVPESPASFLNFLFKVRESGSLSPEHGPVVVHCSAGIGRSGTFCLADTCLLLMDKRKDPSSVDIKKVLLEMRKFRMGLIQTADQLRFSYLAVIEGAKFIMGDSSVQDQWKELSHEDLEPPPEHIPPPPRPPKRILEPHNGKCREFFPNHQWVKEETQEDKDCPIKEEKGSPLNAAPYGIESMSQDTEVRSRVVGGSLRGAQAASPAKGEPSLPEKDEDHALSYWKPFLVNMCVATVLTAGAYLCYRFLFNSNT

Target: Tyrosine-protein phosphatase non-receptor type 1 (Homo sapiens, UniProt P18031)
Test: ChEBML_162100

In the case of `O=C(O)c1ccc(I(=O)=O)cc1`, the IC50 is reported as 200 µM.
